This passage reports Ki, EC50 and IC50 results from ChEMBL document CHEMBL1153960, “Syntheses of novel high affinity ligands for opioid receptors” (Bioorg Med Chem Lett, 2009).

By UniProt entry, the sequences of proteins in these tests, tags left out. Where a name states a change or a piece, a line headed by the entry shows the natural chain unless it says otherwise.
UniProt P35372, whole entry: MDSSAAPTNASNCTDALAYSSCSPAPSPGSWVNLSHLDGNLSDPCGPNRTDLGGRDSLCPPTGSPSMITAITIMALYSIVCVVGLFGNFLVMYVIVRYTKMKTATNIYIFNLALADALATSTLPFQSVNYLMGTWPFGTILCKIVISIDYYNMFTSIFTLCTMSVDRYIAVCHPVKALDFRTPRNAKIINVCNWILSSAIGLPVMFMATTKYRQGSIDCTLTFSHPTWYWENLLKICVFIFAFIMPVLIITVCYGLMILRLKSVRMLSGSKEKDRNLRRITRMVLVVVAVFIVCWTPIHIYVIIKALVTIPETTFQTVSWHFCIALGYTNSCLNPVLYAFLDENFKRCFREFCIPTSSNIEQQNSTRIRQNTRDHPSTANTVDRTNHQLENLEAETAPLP
UniProt P41145: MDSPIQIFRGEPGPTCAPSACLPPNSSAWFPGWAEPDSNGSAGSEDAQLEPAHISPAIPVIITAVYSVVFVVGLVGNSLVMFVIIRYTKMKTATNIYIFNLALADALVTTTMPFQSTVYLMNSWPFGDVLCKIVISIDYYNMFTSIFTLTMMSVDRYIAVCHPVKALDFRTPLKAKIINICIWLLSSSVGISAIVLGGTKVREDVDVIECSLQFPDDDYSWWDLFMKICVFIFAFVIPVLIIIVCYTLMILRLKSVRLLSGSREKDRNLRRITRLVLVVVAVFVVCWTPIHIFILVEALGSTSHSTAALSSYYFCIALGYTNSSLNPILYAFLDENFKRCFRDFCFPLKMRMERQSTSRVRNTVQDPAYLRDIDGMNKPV

What all share (assay): biochemical
In test [1] the target is T1, Mu-type opioid receptor (Homo sapiens, UniProt P35372).
The target in test [2] is T1, Mu-type opioid receptor. This is another data set of the same source.
For test [3], the target named is T1, Mu-type opioid receptor. This is another data set of the same source.
Test [4] has as its target Kappa-type opioid receptor (Homo sapiens, UniProt P41145).

In general, Ki refers to a dissociation constant, usually derived from enzyme kinetics or from competition with a known ligand. Read a low Ki as tighter binding. What is called EC50 is the midpoint of the concentration-response curve. The low end stands for higher potency in that assay, the high end for lower potency in that assay. Usually IC50 stands for the point on the concentration scale where inhibition reaches its midpoint. For the molecule `NC(=O)c1ccc2c(c1O)[C@@]13CCCC[C@@]1(O)[C@@H](C2)N(CC1CC1)CC3`, the affinity on Mu-type opioid receptor [1], expressed as Ki, was 0.16 nM. The same molecule had an EC50 on Mu-type opioid receptor [2] of 10 nM. Also, half-maximal inhibition at Mu-type opioid receptor [3] (IC50) required 3.8 nM.
On to `Oc1ccc2c3c1O[C@H]1c4[nH]c5ccccc5c4C[C@@]4(O)[C@@H](C2)N(CC2CC2)CC[C@]314` [NALTRINDOLE], for which the inhibition constant (Ki) worked out at 5.3 nM at Mu-type opioid receptor [1] and 2.9 nM in test [4].
